ChEMBL document CHEMBL6127021, “Inhibition of protein tyrosine phosphatase 1B by serratane triterpenes from Huperzia serrata and their molecular docking study” (Bioorg Med Chem Lett, 2024)
Activity calls are given as the source filed them. The calls are words filed in the database; no cut-off is given here.

Biological target: T1, Tyrosine-protein phosphatase non-receptor type 1 (Homo sapiens) (UniProt P18031)
T1 sequence (whole entry): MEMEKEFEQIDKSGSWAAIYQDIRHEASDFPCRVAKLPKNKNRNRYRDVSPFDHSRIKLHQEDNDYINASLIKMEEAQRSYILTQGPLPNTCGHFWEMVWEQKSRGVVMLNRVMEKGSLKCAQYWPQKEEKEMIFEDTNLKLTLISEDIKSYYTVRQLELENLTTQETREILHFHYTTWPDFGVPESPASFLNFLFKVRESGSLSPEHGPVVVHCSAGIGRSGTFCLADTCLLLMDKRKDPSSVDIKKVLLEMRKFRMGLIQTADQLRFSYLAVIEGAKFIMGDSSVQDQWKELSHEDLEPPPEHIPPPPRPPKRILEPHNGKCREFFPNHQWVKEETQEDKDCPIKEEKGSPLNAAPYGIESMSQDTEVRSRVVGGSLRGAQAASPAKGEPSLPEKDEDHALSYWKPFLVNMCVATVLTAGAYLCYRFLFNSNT
Test: Competitive inhibition of recombinant human PTP1B using p-NPP as substrate at varying concentrations assessed as constant Vmax at 2.5 to 10 uM incubated for 30 mins by Lineweaver-Burk plot analysis
Settings: dose 2.5-10 µM

With `CC1(C)[C@@H](O)CC[C@@]2(C)[C@H]1CC[C@@]1(C)CC3=CC[C@H]4C(C)(C)[C@@H](O)CC[C@]4(C)[C@H]3CC[C@@H]12` the inhibition was “Active”.
